Tested on: Vascular Cell Adhesion Molecule 1 (VCAM-1)
Assay: In vivo inhibition of the expression of VCAM-1 in aorta of diabetic ApoE-/- mice (real-time PCR)
Details: 130 mg/kg/day in the food for 6 weeks, untreated = 100%, n=8

Structure (SMILES): C=C(C)Cc1c(-c2cc(=O)c3c(O)c(CC(=C)C)c(O)c(CC(=C)C)c3o2)ccc(OC)c1O [Example 1, 6,8,2′-Tris(isobut-2-en-1-yl)diosmetin]
- level of VCAM-1 expression relative to the untreated mice: 65.9±10.1%
